Conditions: compared with isomeric counterpart BP66

Asn-Pro-Asn-Ala-Asn-(Apro-Asn-Ala-Asn-Pro-Asn-Ala-Asn-Pro-Asn-Glu)cyclo-Asn-Pro-Asn-Ala attached to a PE moiety [UK39]
Proneness to degradation in aqueous solution: less prone to be degraded in aqueous solution than its isomeric counterpart BP66
